PubChem BioAssay AID720642 (The Scripps Research Institute Molecular Screening Center, 2013)
The source made the active and inactive calls.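 Rule for the calls: active = EC50 activation potency at or below 10 µM in this mu opioid counterscreen; inactive = EC50 above 10 µM or never reaching half activation.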

Amino acid sequences for entries named in this document (tags omitted).
UniProt P35372, whole entry, looked up: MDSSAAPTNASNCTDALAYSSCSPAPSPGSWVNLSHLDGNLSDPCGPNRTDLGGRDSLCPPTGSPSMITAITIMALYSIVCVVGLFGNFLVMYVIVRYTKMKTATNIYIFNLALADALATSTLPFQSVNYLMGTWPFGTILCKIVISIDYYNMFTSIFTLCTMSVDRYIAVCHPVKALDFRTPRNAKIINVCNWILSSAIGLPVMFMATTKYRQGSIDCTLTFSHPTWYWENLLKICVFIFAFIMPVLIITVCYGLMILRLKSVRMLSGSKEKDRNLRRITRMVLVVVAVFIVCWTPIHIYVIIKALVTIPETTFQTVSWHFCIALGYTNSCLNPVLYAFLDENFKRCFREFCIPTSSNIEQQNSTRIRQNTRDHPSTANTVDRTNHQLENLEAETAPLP

Biological target: Mu-type opioid receptor (Homo sapiens) (UniProt P35372)
Test: mu opioid receptor activation potency – cell-based, luminescence, dose response, powder samples, counter-screen for mouse HTR2A agonist project, late-stage follow-up (AID 720642)
Settings: U2OS OPRM1 beta-arrestin complementation

## Nc1c2c(nc3ccccc13)CCCC2
  EC50: inactive: > 92.5 µM
